Measured affinities in a library of Ab-14 light chain variants

Reference: Li et al. 2023, doi:10.1038/s41467-023-39022-2. File: FLAb, binding data.

Binding partner: SARS-CoV-2 spike HR2 peptide, sequence PDVDLGDISGINAS.

Parent: Ab-14, a human scFv built as VH, the linker GGGGSGGGGSGGGGS, VL. Only the CDRs of the light chain vary.
VH: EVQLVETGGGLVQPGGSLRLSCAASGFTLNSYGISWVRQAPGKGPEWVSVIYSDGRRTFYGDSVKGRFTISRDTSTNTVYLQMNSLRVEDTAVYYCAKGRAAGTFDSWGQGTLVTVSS
VL: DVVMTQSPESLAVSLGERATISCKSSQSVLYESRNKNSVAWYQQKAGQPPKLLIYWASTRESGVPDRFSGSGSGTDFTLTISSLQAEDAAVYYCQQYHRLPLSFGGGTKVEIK

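The starting antibody came from a phage panning campaign against this peptide. The variants were designed computationally from a first round of random CDR variants and then made and measured. Their group label is 14L_GP_HC (GP: Gaussian process model; HC: hill climbing; a sequence that several methods proposed may carry one label only). AlphaSeq pools MATa yeast showing the antibodies with MATalpha yeast showing the peptide. Binding brings cells together so that they mate, and sequencing counts the barcode pairs among the diploids. The ratio of observed to expected reads was calibrated, replicate by replicate, on BCL2-family standards whose Kd was known from biolayer interferometry. The assay was run in six technical replicates.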

Each variant is given by its three light chain CDRs, as the data file delimits them; those of the parent are KSSQSVLYESRNKNSVA, WASTRES, QQYHRLPLS.
Numbers give log10(Kd / nM), so 0 is 1 nM and 3 is 1 µM. Smaller is tighter.
Averages over replicates are reported, and they cover detected replicates only.
"n.d." marks a missing value. The strain was present, yet no cells mated with the target were sequenced in that replicate, which points to weak or no binding.
Values of this round are not directly comparable with the first-round values of the same sequences.

| # | CDR-L1 | CDR-L2 | CDR-L3 | replicates, log10 nM | mean, log10 nM | empty controls |
|---|---|---|---|---|---|---|
| 1 | KLSQSWLYEDRVKNSVA | GAQTRES | QQYHRLPLS | 0.26 0.24 0.40 0.51 -0.40 0.65 | 0.28 | 0 of 18 |
| 2 | KSSQSYDYESRNKKSVA | GASTRES | QQYHRLPLS | 0.12 0.00 0.21 -0.06 0.06 0.23 | 0.09 | 1 of 18 (3.76) |
| 3 | KLYQSVLYESRNKNSVA | HASTRED | KQYHRLPLS | 2.10 2.28 2.50 3.60 2.23 2.43 | 2.52 | 2 of 18 (2.85) |
| 4 | KAQQSWLYESRNKNSVA | GASTRES | QQYHRLPLI | 0.32 0.24 0.46 0.96 0.42 0.55 | 0.49 | 0 of 18 |
| 5 | KFSQSVLYESRVKNSVA | EASTRES | QQYHRLPLS | -0.19 -0.34 -0.26 -0.46 -0.26 -0.38 | -0.31 | 0 of 18 |
| 6 | KVLQSVWYEGRNKNSVA | HASTRED | QQYHRLPLS | 0.43 0.53 0.93 0.35 0.60 0.51 | 0.56 | 2 of 18 (2.80) |
| 7 | KSGCGELYESRNKNSVA | GASTRES | QQYHRLPLS | 0.31 0.11 -0.09 0.14 -0.08 0.16 | 0.09 | 1 of 18 (3.79) |
| 8 | KQSQSVPYESRNKNSVA | DASTRES | QQYHRLPLD | 0.80 0.93 1.27 1.49 1.22 1.48 | 1.20 | 0 of 18 |
| 9 | KVSQSVLYESRMKNSVA | DASTRCS | QQYHRLPLV | 0.18 0.14 -0.12 -0.20 -0.14 0.01 | -0.02 | 2 of 18 (3.23) |
| 10 | KMSQSVLYESVNKNSVA | DASTRES | QQYHRLPLS | 0.46 0.46 0.25 0.17 0.32 0.46 | 0.35 | 0 of 18 |
| 11 | KFSQSFLYESRNKNSVA | DANTRES | QQYHRLPLS | -0.32 -0.42 -0.57 -0.32 -0.58 -0.25 | -0.41 | 0 of 18 |
| 12 | KQSQSVLYEDRNKNSVA | DASTRES | QQYHRLPLS | -0.12 0.36 -0.06 -0.04 0.06 0.28 | 0.08 | 0 of 18 |
| 13 | KSSQSALYESRNVNSVA | GASTRDS | QQYHRLPLS | 0.21 0.12 -0.15 -0.14 0.08 -0.04 | 0.01 | 2 of 18 (2.60) |
| 14 | KFSQSVLYESRTFNSVA | NASTRES | QQYHRLPLS | 0.02 0.19 0.11 -0.16 0.17 0.33 | 0.11 | 1 of 18 (2.15) |
| 15 | KSSVSYLYESRNENSVA | EASTREQ | QQYHRLPLS | 0.33 -0.01 0.13 -0.01 0.03 0.62 | 0.18 | 1 of 18 (2.89) |
| 16 | SLSQSVLYESRTKNSVA | NASTRES | QQYHRLPLS | 0.13 -0.10 -0.05 -0.22 0.26 0.09 | 0.02 | 0 of 18 |
| 17 | KSLQSVLDESRDKNSVA | HASTRED | QQYHRLPLS | 0.47 0.21 0.29 -0.17 0.14 0.14 | 0.18 | 0 of 18 |
| 18 | LSSISYLYESPNKNSVA | EASTREP | QQYHRLPLS | 0.69 0.75 0.55 0.65 0.55 0.43 | 0.60 | 1 of 18 (2.89) |
| 19 | KSYISHLYESRNKNSVA | EASTRES | QQYHRLPLS | 0.46 0.48 0.32 0.37 0.11 0.43 | 0.36 | 1 of 18 (2.54) |
| 20 | KSSQSWLYESRNKNSVA | EASLRES | QQYHRLPLS | -0.11 0.08 -0.14 -0.40 -0.10 -0.04 | -0.12 | 0 of 18 |
| 21 | KQSQSVLYESRNKNSVA | DASTRCS | QQYHRLPLS | 0.00 0.73 -0.12 0.17 -0.16 0.16 | 0.13 | 0 of 18 |
| 22 | KVSQSFLYESRNKNAVA | DASTRES | QQYHRLPLS | -0.16 -0.53 -0.47 -0.60 -0.50 -0.38 | -0.44 | 2 of 18 (2.17) |
| 23 | KSSQSWGYESRNKNSVA | AASTRES | QQYHRLPLS | -0.04 -0.15 -0.15 -0.28 -0.08 0.07 | -0.11 | 0 of 18 |
| 24 | KSSISYLYESRNFNSVA | EASTREE | QQYHRLPLS | 0.34 0.27 0.22 -0.01 0.16 0.51 | 0.25 | 1 of 18 (2.72) |
| 25 | KSSQSVLYESRNKNNVA | HASTRED | QQYARLPLS | n.d. n.d. n.d. n.d. n.d. n.d. | n.d. | 0 of 18 |
| 26 | KFSQSVLYESRTKNNVA | NASTRES | QQYHRLPLS | -0.09 0.06 0.07 0.00 -0.10 0.17 | 0.02 | 2 of 18 (2.01) |
| 27 | KQSQSVLVESVNKNSVA | DASTRES | QQYHRLPLS | 0.44 0.34 0.42 -0.02 0.30 1.02 | 0.41 | 0 of 18 |
| 28 | LLMQSVLYESRNKNSVA | HASLRED | QQYHRLPLS | n.d. 1.13 1.78 1.16 1.23 3.13 | 1.69 | 0 of 18 |
| 29 | KSSISYLIESMNKNSVA | EASTRES | QQYHRLPLS | n.d. 1.66 1.68 1.03 1.36 1.62 | 1.47 | 0 of 18 |
| 30 | KSSISNLYESRMKNSVA | EASTRES | QQYHRLPLS | 0.38 0.28 0.20 0.36 0.15 0.42 | 0.30 | 1 of 18 (1.48) |
| 31 | HLSWVELYESRNKNSVA | NASTRES | QQYHRLPLS | 0.25 0.32 0.28 0.17 0.15 0.34 | 0.25 | 2 of 18 (2.63) |
| 32 | KSSQSVLYESGNKNSVA | EASTREQ | QQYHRLPLS | 0.62 0.49 0.73 0.56 0.55 0.66 | 0.60 | 2 of 18 (3.34) |

In the paper, a design with two or fewer of six values counts as a poor binder.
Empty control strains, which show no peptide, gave a signal in 4% of pairings with all light chain designs; the median was 2.64 and 95% of these signals were weaker than 1.59. No background was subtracted. For each scFv, signals with the empty controls are counted beside the result, with their mean in brackets.
Of ten entries with the parent sequence, four were seen in most replicates (averages 0.34 to 2.37), three in one and three in none, so single entries are noisy.